Earlier results in patent publication US20210340516A1, “COMPOSITIONS CONTAINING ARGINASE 1 FOR THE TREATMENT OF NEUROVASCULAR AND RETINAL VASCULAR DISORDERS” (Augusta University Research Institute, Inc., priority 2020, published 2021).

Conditions: cited from earlier work

B1: PEG-A1: recombinant human arginase (rhArg) covalently attached to methoxy polyethylene glycol (mPEG-SPA; MW 5,000) via succinamide propionic acid (SPA) linker (protein, UniProt P05089 1-322, looked up)
Arginase-1: MSAKSRTIGIIGAPFSKGQPRGGVEEGPTVLRKAGLLEKLKEQECDVKDYGDLPFADIPNDSPFQIVKNPRSVGKASEQLAGKVAEVKKNGRISLVLGGDHSLAIGSISGHARVHPDLGVIWVDAHTDINTPLTTTSGNLHGQPVSFLLKELKGKIPDVPGFSWVTPCISAKDIVYIGLRDVDPGEHYILKTLGIKYFSMTEVDRLGIGKVMEETLSYLLGRKKRPIHLSFDVDGLDPSFTPATGTPVVGGLTYREGLYITEEIYKTGLLSGLDIMEVNPSLGKTPEEVTRTVNTAVAITLACFGLAREGNHKPIDYLNPPK
modifications: mPEG-SPA 5 kDa conjugate
notes: recombinant human arginase (rhArg) covalently attached to methoxy polyethylene glycol (mPEG-SPA; MW 5,000) via succinamide propionic acid (SPA) linker
Q: For B1, which half-life in vivo is on record?
A: Its half-life in vivo is 72 h.
